# From PubChem BioAssay
# Only some compounds are listed: those with a hit (about 0.44% of all), similar ones and a draw of the others.
# Rango-impB inh = prevents formation of the Rango-importin beta complex; Q14974; Rango CFP/YFP FRET sensor + importin beta, 45 min; Potency, µM (highest dose often 92.2 µM), for the others: at the top dose inhibition of complex formation; 340,000 tested, 0.031% active;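 further: 0% = DMSO wells and 100% = buffer wells lacking importin beta; nearly all actives have a fitted effect of over 15% in size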
#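 Inhibition scored from the CFP 486 nm/YFP 530 nm FRET ratio 45 min after adding 0.125 microM importin beta to 50 nM Rango biosensor preincubated 5 min with compound (room temperature, PBS with DTT, Tween-20, BSA). No-importin wells as positive control.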
# Tb PFK inh = blocks T. brucei phosphofructokinase. T. brucei PFK, ADP-Glo luminescence. AID 485367. 330,000 tested, 0.17% active. O15648. Potency, µM (titrated, usually from 57.5 µM), inactives show top-dose activity, negative = inhibition, actives largely listed as inhibitors; active means well fitted curve in the direction sought with a large enough effect; inconclusive means small, poorly fitted or top-dose-only effect, or another doubt; inactive means no such curve, though single readings can be large; an effect the other way counts as inactive or inconclusive;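 further: 0% = uninhibited 1x PFK enzyme wells and -100% = no-enzyme wells; nearly all actives have a fitted effect of over 60% in size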
#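 In TEA buffer at pH 8.0 with 5 mM MgCl2, enzyme (1.25 nM) converted F6P (0.5 mM) and ATP (0.1 mM) for 45 min at room temperature. ADP product was read by luciferase luminescence.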
# Chronic BCR inh = inhibitors of chronic active B-cell receptor signaling. ABC-DLBCL IkBa-CBG/CBR reporter, luminescence ratio, 4 h. Potency, µM (titrated, usually from 46.1 µM), without a hit: at the top dose activity change, negative = inhibition, usual class: inhibitors. 340,000 tested, 0.05% active; active means well fitted inhibition curve with a large enough effect in the signal ratio, with a control signal flat, not every such curve was filed as active; inconclusive means small, poorly fitted or top-dose-only effect, or effect the other way, or a change in a side signal; the % refers to the signal ratio;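 further: plate controls were basal doxycycline-induced cells for no effect and cells given 10 µM MG132 for full effect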
#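 Concentration-response series (up to 46 uM) were applied to TMD8 dual-reporter cells for 4 h at 37C with doxycycline. Green/red ratio, after filter-overlap correction, defined %Activity; red signal alone was normalised to basal cells and zero luminescence.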
# KinaseGlo FLuc = counter-screen: inhibitors of Kinase-Glo firefly luciferase | AID 1379 | 200,000 tested, 0.28% active | Kinase-Glo luciferase, ATP luminescence, 8 min | Q27757 | Potency, µM (top dose mostly 38.3 µM), inactives show at the top dose activity change, negative = inhibition, actives largely listed as inhibitors; active means well fitted curve in the direction sought with a large enough effect; inconclusive means small, poorly fitted or top-dose-only effect, or another doubt; inactive means no such curve, though single readings can be large; an effect the other way counts as inactive or inconclusive; further: on the % scale 0 is the no-effect control and ±100 the full control effect; nearly all actives have a fitted effect of over 60% in size
#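 Recombinant Kinase-Glo luciferase, 10 uM ATP (linear range), luciferin; imidazole pH 7.2 / KCl / MgCl2 / Tween / BSA buffer; 8 min RT; luminescence.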
# Rango dissoc inh = prevents RanGTP from dissociating the Rango-importin beta complex; O95149+P62826; Biochemical FRET Rango-importin beta, RanGTP-induced dissociation; Potency, µM (titrated, usually from 46.1 µM), without a hit: top-dose activity change, negative = inhibition; 340,000 tested, 0.071% active; AID 540253; further: % of control where 0% means no effect; nearly all actives have a fitted effect of over 45% in size
#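 Recombinant Rango FRET biosensor (EYFP–snurportin 1 IBB–cerulean CFP10) at 0.1 uM premixed with 0.25 uM importin beta in PBS, 1 mM DTT, 0.02% Tween-20, 0.1% BSA. Compound added 5 min; RanGTP-RCC1 (0.6 uM Ran, 2 mM GTP, 0.2 uM RCC1) then triggers release, read at 45 min.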
# LMNA splice mod = modulators of lamin A splicing | HeLa LMNA splicing GFP/RFP minigene ratio, 48 h | 200,000 tested, 0.01% active | Potency, µM (titrated, usually from 46.1 µM), for the others: at the highest dose ratio change, negative = inhibition, most hits filed as inhibitors; active means well fitted inhibition curve with a large enough effect in the signal ratio, with a control signal flat, not every such curve was filed as active; inconclusive means small, poorly fitted or top-dose-only effect, or effect the other way, or a change in a side signal; the % refers to the signal ratio; further: on the % scale 0 is the no-effect control and ±100 the full control effect
#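 S3 HeLa cells stably expressing lamin A-EGFP splicing minigene plus DsRed2, 600 cells/well, 48 h compound exposure at 37C. Laser-scanning cytometry; analysed as GFP (500-530 nm)/RFP (575-640 nm) total intensity ratio; 0.5% DMSO vehicle.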
# The depositor's hits bear a star; ? = inconclusive; / = not tested or not shown; [ ] = remark or other dose. Unless noted, the call rests on the fitted dose curve. Potency means the concentration at half of the fitted maximal effect.
no.	Compound	Rango-impB inh	Tb PFK inh	Chronic BCR inh
1	CCOc1cc(/C=C2\SC(=S)N(NS(=O)(=O)c3ccc(C)cc3)C2=O)ccc1O	23µM*	/	/
2	COc1cc(/C=C2\SC(=S)N(NS(=O)(=O)c3ccc(C)cc3)C2=O)ccc1O	41µM*	6%	24%
3	CC(C)(C)C(=O)Nc1ccc(C(=O)Nc2cccc(Oc3ccc(C(=O)O)c(C(=O)O)c3)c2)cc1	-1%	21µM*	1%
4	CCOC(=O)C1=C(C)N(CCCC(=O)O)C(=O)NC1C(CC)CC (stereo not drawn)	4%	/	/
5	COc1ccccc1NC(=O)Cc1noc(CSc2cccc[n+]2[O-])n1	0%	-5%	23µM*
6	CCOC(=O)C1CCN(C(=O)c2ccc(Cl)c(Cl)c2)CC1	1%	-7%	-1%
7	CCOC(=O)C1CCN(C(=O)c2ccc3nc(-c4ccc(OC)cc4)c(-c4ccc(OC)cc4)nc3c2)CC1	?	1%	-2%
8	O=[N+]([O-])c1ccc(-c2nc(-c3cccs3)c(-c3cccs3)[nH]2)cc1	9.2µM*	-1%	?
9	O=C(Nc1nccc(-c2cccs2)n1)c1cccs1	0%	1%	?
10	Cc1cccc2nc(=S)n(C(=O)c3ccco3)n12	1%	2%	?
11	Cc1ccn2c(c1)nc(=S)n2C(=O)c1ccccc1	6%	-1%	?
12	CC(=O)N1CCN(C(=O)c2ccco2)CC1	-4%	0%	5%
13	O=C(c1ccco1)n1c(=S)nc2ccccn21	-2%	-7%	0%
14	COc1ccc(N=NC2=C(O)CC(C)(C)CC2=O)c(OC)c1	52µM*	4%	?
15	CC(=O)N(CCc1cccc(C)c1)Cc1cc2ccc(C)cc2[nH]c1=O	0%	0%	-11%

no.	KinaseGlo FLuc	Rango dissoc inh	LMNA splice mod
1	/	17%	/
2	/	?	/
3	/	3%	/
4	/	14%	/
5	0%	-5%	0%
6	1%	-1%	-13%
7	/	16µM*	/
8	1%	-17%	?
9	-11%	-17%	8%
10	3.2µM*	13%	7%
11	?	15%	?
12	/	?	/
13	13µM*	-10%	2%
14	1%	15%	-4%
15	/	1%	/

# Shown as a hit in Rango dissoc inh, among the entries above:
entry	Molecule	Rango-impB inh	Tb PFK inh	Rango dissoc inh	LMNA splice mod
7	CCOC(=O)C1CCN(C(=O)c2ccc3nc(-c4ccc(OC)cc4)c(-c4ccc(OC)cc4)nc3c2)CC1	?	1%	16µM*	/

# Carrying on.
no.	Compound	Rango-impB inh	Tb PFK inh	Chronic BCR inh
16	CC1=C(C(=O)Nc2cccc(C)n2)C(c2ccc3c(c2)OCO3)C2=C(CC(c3ccco3)CC2=O)N1 (stereo not drawn)	?	1%	2%
17	COc1ccc(C2CC(=O)C3=C(C2)NC(C)=C(C(=O)Nc2ccccc2C)C3c2coc3ccc(C)cc3c2=O)cc1OC (stereo not drawn)	-1%	3%	11%
18	CCCCCCN1C=CC(=C2C(=O)c3ccccc3C2=O)C=C1	?	-6%	0%
19	CCN1C=CC(=C2C(=O)c3ccccc3C2=O)C=C1	4%	?	?
20	CN1C=CC(=C2C(=O)c3ccccc3C2=O)C=C1	/	-3%	11%
21	CCCN1C=CC(=C2C(=O)c3ccccc3C2=O)C=C1	4%	-20%	?
22	CCCCN1C(C)=CC(=C2C(=O)c3ccccc3C2=O)C=C1C	?	2%	18%
23	Cc1nc2nc[nH]n2c(=O)c1NS(=O)(=O)c1ccc(C(C)(C)C)cc1	2%	-5%	-10%
24	Cc1cc2ccccc2n2c(SCC(=O)NCc3cccs3)nnc12	?	7%	?
25	Cc1ccc(-n2nc3c(n2)/C(=N/O)CC/C3=N\O)cc1	0%	-3%	?
26	CC(SC1=NCCN1S(=O)(=O)c1ccc(F)cc1)c1ccccc1 (stereo not drawn)	-1%	2%	9%
27	Cn1cc(-c2nc3cnc(N4CCNCC4)nc3n(C)c2=O)c2ccccc21	/	/	/
28	Cc1cccc(CN2C(=O)N/C(=C/c3cc(C)n(-c4ccccn4)c3C)C2=O)c1	?	2%	23%
29	Cc1cc(Cl)nc(-n2nc(C)cc2C)n1	-1%	0%	-7%
30	C=CCSC(=C(C#N)C#N)c1cc2c([nH]1)CCCC2	?	-11%	-4%

no.	KinaseGlo FLuc	Rango dissoc inh	LMNA splice mod
16	2%	18µM*	-4%
17	-1%	1%	-10%
18	8.9µM*	-5%	/
19	5µM*	10%	-6%
20	?	/	0%
21	4.5µM*	1%	-1%
22	?	-14%	/
23	1%	12%	/
24	-4%	-7%	9%
25	13µM*	7%	-5%
26	/	-15%	/
27	/	/	2%
28	17%	5.2µM*	-8%
29	/	-5%	/
30	-5%	16µM*	?

# New compounds follow.
no.	Compound	Rango-impB inh	Tb PFK inh	Chronic BCR inh
31	COC(=O)CCC(=O)OC1(C)C(=O)C2=CN(c3ccc(OC)cc3)C(c3ccc(OC)cc3)=CC2=C(Br)C1=O (stereo not drawn)	?	/	/
32	COC(=O)CCC(=O)OC1(C)C(=O)C2=CN(C3CCCC3)C(c3ccc(OC)cc3)=CC2=C(Br)C1=O (stereo not drawn)	?	3%	6%
33	COc1cccc(N/C=C/C(=O)c2ccc(C)cc2)c1	?	2%	?
34	O=C(/C=C/Nc1ccccc1)c1ccccc1	?	-9%	?
35	CN(C)c1ccc(N/C=C/C(=O)c2ccccc2)cc1	?	-9%	?
36	CNC(=O)c1ccsc1NC(=O)c1coc2ccccc2c1=O	2%	10%	?
37	CCc1cc(=O)oc2cc(OC(C)=O)cc(OC(C)=O)c12	?	0%	?
38	Cc1ccc(-n2[nH]c(C)c(C=Nc3ccc4[nH]c(=O)[nH]c4c3)c2=O)cc1	?	-1%	3%
39	Cc1ccc(N=Cc2c(C)[nH]n(-c3nc4ccccc4[nH]3)c2=O)cc1	-2%	0%	?
40	O=C(N/N=C/c1ccc(OCC(=O)N2CCCCC2)cc1)c1ccccc1	0%	14%	?
41	O=C(N/N=C/c1ccccc1OCC(=O)N1CCCC1)C(=O)Nc1ccccc1F	-2%	-6%	?
42	CCOC(=O)N1CCN(c2c(NCc3ccc(N(C)C)cc3)c(=O)c2=O)CC1	1%	-1%	2%
43	Cc1nc2nc(-c3ccccc3)cn2nc1C	-2%	/	/
44	c1ccc(-c2cn3nc4c(nc3n2)CCCC4)cc1	?	-6%	?
45	O=C(c1sc2ccccc2c1Cl)N(Cc1ccco1)C1CCS(=O)(=O)C1 (stereo not drawn)	?	1%	0%
46	Cc1cc2nc(-c3cccnc3SCC(=O)NCc3ccco3)[nH]c2cc1C	-4%	-2%	?

no.	KinaseGlo FLuc	Rango dissoc inh	LMNA splice mod
31	-3%[7.66 µM]	?	1%[9.22 µM]
32	-6%[7.66 µM]	9.2µM*	1%[9.22 µM]
33	/	15µM*	/
34	7.1µM*	-26%	7%
35	4µM*	6%	-10%
36	/	-9%	/
37	-2%	12µM*	?
38	-13%	?	-19%
39	5µM*	-1%	12%
40	-10%	3%	1%
41	8.9µM*	-9%	-6%
42	-1%	-6%	5%
43	10µM*	?	-4%
44	14µM*	?	-4%
45	1%	18µM*	-8%
46	11µM*	-21%	?

# Entries above with a COOH group, in the order listed:
no.	Compound	Rango-impB inh	Tb PFK inh	Chronic BCR inh
3	CC(C)(C)C(=O)Nc1ccc(C(=O)Nc2cccc(Oc3ccc(C(=O)O)c(C(=O)O)c3)c2)cc1	-1%	21µM*	1%
4	CCOC(=O)C1=C(C)N(CCCC(=O)O)C(=O)NC1C(CC)CC (stereo not drawn)	4%	/	/

no.	KinaseGlo FLuc	Rango dissoc inh	LMNA splice mod
3	/	3%	/
4	/	14%	/
